Data on one substance can be found in patent US12729231B2, “Fusion protein having triple activity and use thereof” (SHANGHAI MINWEI BIOTECHNOLOGY CO., LTD, priority 2023, dated 2026).

By UniProt entry, the sequences of proteins in these tests, tags left out. Residues count along the entry.
UniProt P43220, 24-463: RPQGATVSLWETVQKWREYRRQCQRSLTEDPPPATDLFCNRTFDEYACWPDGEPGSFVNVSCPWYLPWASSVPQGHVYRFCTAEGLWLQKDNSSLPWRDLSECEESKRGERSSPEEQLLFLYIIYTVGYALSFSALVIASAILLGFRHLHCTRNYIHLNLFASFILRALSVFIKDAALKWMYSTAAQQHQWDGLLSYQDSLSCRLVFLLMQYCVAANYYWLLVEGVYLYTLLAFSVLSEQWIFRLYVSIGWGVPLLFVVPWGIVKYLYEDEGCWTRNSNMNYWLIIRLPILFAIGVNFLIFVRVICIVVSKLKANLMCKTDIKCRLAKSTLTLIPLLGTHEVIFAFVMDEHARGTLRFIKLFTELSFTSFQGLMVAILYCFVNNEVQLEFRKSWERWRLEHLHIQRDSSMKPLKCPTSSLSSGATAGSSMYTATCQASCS

The target in one assay is T1, human GIP receptor (Homo sapiens, UniProt P48546).
T1 construct: expressed in transfected cells; host or cells: CHO-K1
T1 sequence (P48546 22-466): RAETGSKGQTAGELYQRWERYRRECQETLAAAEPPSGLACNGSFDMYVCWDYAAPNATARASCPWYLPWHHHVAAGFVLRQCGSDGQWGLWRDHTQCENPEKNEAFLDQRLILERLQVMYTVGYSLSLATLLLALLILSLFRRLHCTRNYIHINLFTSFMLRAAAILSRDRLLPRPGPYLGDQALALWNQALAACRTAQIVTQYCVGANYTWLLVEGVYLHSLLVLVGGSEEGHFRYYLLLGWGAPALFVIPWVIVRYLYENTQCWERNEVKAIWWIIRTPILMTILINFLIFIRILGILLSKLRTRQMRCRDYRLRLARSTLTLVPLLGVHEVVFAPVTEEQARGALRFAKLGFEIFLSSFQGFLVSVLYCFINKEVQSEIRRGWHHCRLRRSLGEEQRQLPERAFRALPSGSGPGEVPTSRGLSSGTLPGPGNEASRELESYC
The assay can be described thus: in vitro GIP activity, CRE-luciferase reporter in CHO-K1 cells. The class given is cell-based. The conditions noted are these: CHO-K1 cells expressing human GIP receptor and CRE-luciferase, 5 hours incubation. The procedure:
(§1) CHO-K1 cells expressing human GIP receptor and CRE-luciferase were used to detect the in vitro GIP activity of the fusion proteins. The cells were inoculated in a 96-well plate at a density of 30,000 cells/well/100 μL, and cultured at 5% CO2, 37° C. for 1 hour. For each protein sample to be tested, the protein solution was diluted 9 times with a 4-fold gradient with PBS containing 2% HAS starting from a certain concentration, so that 10 dilutions of each sample with different concentrations were obtained. 50 μL of each dilution was taken out and added into the 96-well plate inoculated with cells, and the 96-well plate was incubated at 5% CO2, 37° C. for 5 hours. The 96-well plate was taken out from the incubator and placed at room temperature for 10 minutes of equilibration, and 100 μL of reaction solution was added into each well. After the 96-well plate was shaken at 200 rpm for 10 minutes, the fluorescence reading of each well was detected by a multi-function microplate reader. Using the sample concentration as the abscissa and the fluorescence reading as the ordinate, a curve was drawn and the median effective concentration (EC50) of each sample was calculated. The activity of some of the selected fusion proteins is much higher than that of the control Tirzepatide.

For the next assay, the target named is T2, human GLP-1 receptor (Homo sapiens, UniProt P43220).
T2 construct: expressed in transfected cells; host or cells: CHO-K1
The assay can be described thus: in vitro GLP-1 activity, CRE-luciferase reporter in CHO-K1 cells. The class given is cell-based. The settings on record: CHO-K1 cells expressing human GLP-1 receptor and CRE-luciferase, 5 hours incubation. How it is done:
as §1, with “GLP-1” for “GIP”, “calculated.” for “calculated. The activity of some of the selected fusion proteins is much higher than that of the control Tirzepatide.”

As for Tirzepatide, the figures for the concentration giving a half-maximal response (EC50) on human GIP receptor and on human GLP-1 receptor were 0.059 nM and 12.8 nM, respectively.
